Experimental findings from paper PMC10192561 (Frontiers in Pharmacology, 2023) are described below.

The experiment relates to rat liver microsomes (RLM). To be noted: flumatinib metabolism in RLM.

Turning to `CC(=O)N1CCN(c2ccc(OCC3COC(Cn4ccnc4)(c4ccc(Cl)cc4Cl)O3)cc2)CC1` (stereo not shown) [ketoconazole], the α came out at 0.79.
